Where a name gives a salt, the structure may show the parent alone. Read-outs that look alike come from different tables or passages of the source.
Tests used:
Format in all cases: cell-based
[1] = system: HCT116: human colon cancer cell line; experiment: Growth inhibition (cytotoxicity, WST-8) of HCT116 cells expressing only a low level of microsomal dipeptidase; settings: drug exposure time; 24 hr, then drug removed and cells cultured further
Protocol: The activation of the compounds is mediated by microsomal dipeptidase. The inhibitory activities of the compounds is determined against growth of the cells expressing a low level of microsomal dipeptidase, those expressing a high level of microsomal dipeptidase, and granulocyte progenitors that are expanded ex vivo. […] A stable transfectant, HCT116/S5, into which the human microsomal dipeptidase cDNA (herafter called MDP) connected to the CMV promoter was transfected, is used as the cells expressing a high level of microsomal dipeptidase. […] HCT116, HCT116/S5, and granulocyte porogenitors are cultured in the absence and presence of the drugs. […] The IC50 values are determined and compared among HCT116, HCT116/S5, and granulocyte porogenitors.
Transfection of the DNA was carried out by using TransIT-LT2 (PanVera, Madison, USA, Calatog No. MIR2320) according to the manufacturer's instruction. […] The cells that grew in the presence of 1 mg/ml G418 were collected and cultivated in MaCoy5A medium.
By using 96-multi well plates, approximately 2×10^3 cells per well of the HCT116 bearing pRC/CMV and HCT116S5 carrying pRC/CMV-MDP were cultured in 200 μl of McCoy5A medium supplemented with 10% FBS in the presence or absence of the indicated concentrations of the drugs at 37° C. under 5% CO2 in humidified air. […]

[2] = system: HCT116/S5: HCT116 transfected with the human microsomal dipeptidase cDNA; experiment: Growth inhibition (cytotoxicity, WST-8) of HCT116/S5 cells expressing a high level of microsomal dipeptidase; settings: drug exposure time; 24 hr, then drug removed and cells cultured further
Protocol: (§1) The activation of the compounds is mediated by microsomal dipeptidase. The inhibitory activities of the compounds is determined against growth of the cells expressing a low level of microsomal dipeptidase, those expressing a high level of microsomal dipeptidase, and granulocyte progenitors that are expanded ex vivo. The human colon cancer cell line, HCT116 (American Type Culture Collection No. CCL-247), and granulocyte progenitors are used as the cells expressing only a low level of microsomal dipeptidase. A stable transfectant, HCT116/S5, into which the human microsomal dipeptidase cDNA (herafter called MDP) connected to the CMV promoter was transfected, is used as the cells expressing a high level of microsomal dipeptidase. […] The IC50 values are determined and compared among HCT116, HCT116/S5, and granulocyte porogenitors. […]
By using 96-multi well plates, approximately 2×10^3 cells per well of the HCT116 bearing pRC/CMV and HCT116S5 carrying pRC/CMV-MDP were cultured in 200 μl of McCoy5A medium supplemented with 10% FBS in the presence or absence of the indicated concentrations of the drugs at 37° C. under 5% CO2 in humidified air. […] Cell growth inhibition was calculated as IC50 values according to optical densities at 450 nm and at 655 nm. […] Cell growth inhibition was calculated as IC50 values according to optical densities at 450 nm and at 655 nm.

[3] = system: CFU-GM: human bematopoietic progenitor cells; experiment: Growth inhibition (cytotoxicity, WST-1) of granulocyte progenitors expanded ex vivo (CFU-GM)
Protocol: as §1, with “dipeptidase.” for “dipeptidase. A stable transfectant, HCT116/S5, into which the human microsomal dipeptidase cDNA (herafter called MDP) connected to the CMV promoter was transfected, is used as the cells expressing a high level of microsomal dipeptidase.”
CD34-positive mononuclear cells derived from the human umbilical cord blood and bone marrow (Veritas Co, Tokyo, Japan, Catalog No.CB009F, ABM019F) were cultured on a confluent monolayer of MS5 (Itoh, K., et al. Reproducible establishment of hematopoietic supportive stromal cells from murine bone marrow. Exp. Hematol. 17, 145-153 (1989)). […] After washing with PBS containing 10% (v/v) FCS, the expression of CD antigens were detected by using FACSCalibur (Becton Dickinson, Franklin Lakes, N.J., USA) according to the FACSCalibur Traing mannual (FACStation ver1.1. Becton Dickinson, Franklin Lakes, N.J., USA.). […]

| Compound | IC50 [1] [nM] | IC50 [2] [nM] | IC50 [3] [nM] | IC50 ([3]; drug exposure time, 24 hr, then cultured for 6 days without drugs, read-out: Cytotoxicity (IC50 in nM) CFU-GM) [nM] |
| --- | --- | --- | --- | --- |
| 13α-((2R,3S)-2-{(5S)-[5-((2S)-2-amino-propinoylamino)-5-hydroxycarbonyl]pentanoylox}-3-benzoylamino-3-phenylpropionyloxy)-2α-benzyloxy-4α,10β-diacetoxy-1β,7β-dihydroxy-5β,20-epoxy-tax-11-en-9-one formic acid salt [Example 4] | 51 | 5.1 | 54 |  |
| CCCCCN1C=Nc2cccc3nc4c(c1c23)Cn1c-4cc2c(c1=O)COC(=O)[C@@]2(CC)OC(=O)CC[C@@H](NC(=O)[C@@H](N)CC(C)C)C(=O)O [Example 49-4, (9S)-9-ethyl-9-[(L)-leucyl-(D)-γ-glutamyloxy]-1-pentyl-1H,12H-pyrano[3″,4″:6′,7′]-indolizino[1′,2′:6,5]pyrido[4,3,2-de]quinazoline-10,13(9H,15H)-dione hydrochloride] |  |  |  | 54 |
